Biological target: Fungal ACC2 (UniProt Q00955)
Conditions: read-out: Fungal ACC2 (IC50, in vitro ACC2 inhibition)

Amino acid sequences for entries named in this document (tags omitted).
UniProt Q00955, whole entry: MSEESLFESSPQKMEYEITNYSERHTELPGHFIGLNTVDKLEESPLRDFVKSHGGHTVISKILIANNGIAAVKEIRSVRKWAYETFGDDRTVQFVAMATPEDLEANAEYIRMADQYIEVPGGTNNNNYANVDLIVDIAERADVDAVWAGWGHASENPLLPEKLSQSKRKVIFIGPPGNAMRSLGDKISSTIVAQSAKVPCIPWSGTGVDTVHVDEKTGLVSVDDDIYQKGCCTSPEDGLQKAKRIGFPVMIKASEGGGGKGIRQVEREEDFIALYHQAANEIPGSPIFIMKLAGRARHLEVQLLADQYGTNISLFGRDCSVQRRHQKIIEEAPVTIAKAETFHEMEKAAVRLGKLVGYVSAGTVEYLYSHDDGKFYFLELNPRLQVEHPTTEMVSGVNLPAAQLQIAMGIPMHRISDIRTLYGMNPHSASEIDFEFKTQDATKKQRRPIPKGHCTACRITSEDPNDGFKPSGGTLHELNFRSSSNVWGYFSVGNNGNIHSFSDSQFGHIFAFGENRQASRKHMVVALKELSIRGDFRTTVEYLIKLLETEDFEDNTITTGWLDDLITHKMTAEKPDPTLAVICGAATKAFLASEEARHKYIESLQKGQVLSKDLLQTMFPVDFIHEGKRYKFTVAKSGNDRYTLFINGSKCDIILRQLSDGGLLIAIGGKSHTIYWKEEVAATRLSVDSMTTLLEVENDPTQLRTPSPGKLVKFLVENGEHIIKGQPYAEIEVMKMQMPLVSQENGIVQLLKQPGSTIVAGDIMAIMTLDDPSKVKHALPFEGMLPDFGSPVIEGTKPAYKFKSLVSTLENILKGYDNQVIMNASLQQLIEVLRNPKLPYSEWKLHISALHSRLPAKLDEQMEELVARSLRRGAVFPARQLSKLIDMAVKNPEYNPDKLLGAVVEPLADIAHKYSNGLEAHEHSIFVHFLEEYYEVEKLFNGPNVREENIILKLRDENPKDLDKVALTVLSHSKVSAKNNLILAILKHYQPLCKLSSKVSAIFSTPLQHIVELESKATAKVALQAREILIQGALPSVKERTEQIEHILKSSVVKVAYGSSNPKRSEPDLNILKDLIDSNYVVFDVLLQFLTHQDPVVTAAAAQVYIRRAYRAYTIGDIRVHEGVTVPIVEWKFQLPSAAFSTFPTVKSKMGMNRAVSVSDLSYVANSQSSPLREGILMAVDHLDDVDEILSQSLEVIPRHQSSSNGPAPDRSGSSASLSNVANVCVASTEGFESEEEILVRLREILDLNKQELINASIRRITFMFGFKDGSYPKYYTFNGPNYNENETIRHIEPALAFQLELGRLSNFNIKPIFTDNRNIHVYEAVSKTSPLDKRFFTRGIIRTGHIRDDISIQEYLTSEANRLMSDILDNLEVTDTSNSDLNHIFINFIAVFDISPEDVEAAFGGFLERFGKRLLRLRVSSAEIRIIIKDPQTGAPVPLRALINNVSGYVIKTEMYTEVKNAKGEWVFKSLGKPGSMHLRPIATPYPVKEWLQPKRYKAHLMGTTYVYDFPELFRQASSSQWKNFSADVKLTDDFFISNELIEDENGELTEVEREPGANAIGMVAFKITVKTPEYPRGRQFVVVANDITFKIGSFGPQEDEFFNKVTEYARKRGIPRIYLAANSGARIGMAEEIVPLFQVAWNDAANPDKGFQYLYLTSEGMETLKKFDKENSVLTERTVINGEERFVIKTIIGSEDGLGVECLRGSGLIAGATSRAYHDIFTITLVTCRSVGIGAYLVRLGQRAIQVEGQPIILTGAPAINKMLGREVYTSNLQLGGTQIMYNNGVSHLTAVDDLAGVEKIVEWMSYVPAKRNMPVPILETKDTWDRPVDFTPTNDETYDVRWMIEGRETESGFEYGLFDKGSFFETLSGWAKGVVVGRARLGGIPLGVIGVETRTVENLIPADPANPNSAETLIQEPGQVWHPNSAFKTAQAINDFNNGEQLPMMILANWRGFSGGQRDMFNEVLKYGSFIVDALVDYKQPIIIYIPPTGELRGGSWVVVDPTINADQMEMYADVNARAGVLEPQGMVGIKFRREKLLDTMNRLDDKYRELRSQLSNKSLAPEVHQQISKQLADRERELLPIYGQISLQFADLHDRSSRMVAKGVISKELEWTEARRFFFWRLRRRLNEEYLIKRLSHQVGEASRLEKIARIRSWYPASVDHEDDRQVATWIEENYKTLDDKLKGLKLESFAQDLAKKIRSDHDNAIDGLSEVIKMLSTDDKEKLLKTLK

SMILES | IC50
CCN1CC[C@H](n2c(=O)c3c(C)c(-n4nccn4)sc3n(C[C@H](OC3CCOCC3)c3cc(F)ccc3OC)c2=O)C1=O [Compound I-150, 3-((S)-1-ethyl-2-oxopyrrolidin-3-yl)-1-((R)-2-(5-fluoro-2-methoxyphenyl)-2-((tetrahydro-2H-pyran-4-yl)oxy)ethyl)-5-methyl-6-(2H-1,2,3-triazol-2-yl)thieno[2,3-d]pyrimidine-2,4(1H,3H)-dione] | 0.7 to 2 nM
COc1ccc(F)cc1[C@H](Cn1c(=O)n([C@@H]2CCCN(C(C)C)C2=O)c(=O)c2c(C)c(-n3nccn3)sc21)OC1CCOCC1 [Compound I-77, 1-((R)-2-(5-fluoro-2-methoxyphenyl)-2-((tetrahydro-2H-pyran-4-yl)oxy)ethyl)-3-((R)-1-isopropyl-2-oxopiperidin-3-yl)-5-methyl-6-(2H-1,2,3-triazol-2-yl)thieno[2,3-d]pyrimidine-2,4(1H,3H)-dione] | 0.7 to 2 nM
COc1ccc(F)cc1[C@H](Cn1c(=O)n(C2CCN(C(C)C)C2=O)c(=O)c2c(C)c(-n3nccn3)sc21)OCCO (stereo partly drawn) [Compound I-8, 1-((R)-2-(5-fluoro-2-methoxyphenyl)-2-(2-hydroxyethoxy)ethyl)-3-(1-isopropyl-2-oxopyrrolidin-3-yl)-5-methyl-6-(2H-1,2,3-triazol-2-yl)thieno[2,3-d]pyrimidine-2,4(1H,3H)-dione] | 0.7 to 2 nM
COc1ccc(F)cc1[C@H](Cn1c(=O)n(C2CCNC2=O)c(=O)c2c(C)c(-c3ncco3)sc21)OC1CCOCC1 (stereo partly drawn) [Compound I-58, 1-((R)-2-(5-fluoro-2-methoxyphenyl)-2-((tetrahydro-2H-pyran-4-yl)oxy)ethyl)-5-methyl-6-(oxazol-2-yl)-3-(2-oxopyrrolidin-3-yl)thieno[2,3-d]pyrimidine-2,4(1H,3H)-dione] | 2 to 10 nM
COc1ccc(F)cc1[C@H](Cn1c(=O)n(C2CCNC2=O)c(=O)c2c(C)c(-n3nccn3)sc21)OC1CCOCC1 (stereo partly drawn) [Compound I-9, 1-((R)-2-(5-fluoro-2-methoxyphenyl)-2-((tetrahydro-2H-pyran-4-yl)oxy)ethyl)-5-methyl-3-(2-oxopyrrolidin-3-yl)-6-(22H-1,2,3-triazol-2-yl)thieno[2,3-d]pyrimidine-2,4(1H,3H)-dione] | 0.7 to 2 nM
COc1ccc(F)cc1[C@H](Cn1c(=O)n(C2CCCNC2=O)c(=O)c2c(C)c(-n3nccn3)sc21)OC1CCOCC1 (stereo partly drawn) [Compound I-21, 1-((R)-2-(5-fluoro-2-methoxyphenyl)-2-((tetrahydro-2H-pyran-4-yl)oxy)ethyl)-5-methyl-3-(2-oxopiperidin-3-yl)-6-(2H-1,2,3-triazol-2-yl)thieno[2,3-d]pyrimidine-2,4(1H,3H)-dione] | 0.7 to 2 nM
COc1ccc(F)cc1[C@H](Cn1c(=O)n(C2CCCN(C)C2=O)c(=O)c2c(C)c(-c3ncco3)sc21)OC1CCOCC1 (stereo partly drawn) [Compound I-52, 1-((R)-2-(5-fluoro-2-methoxyphenyl)-2-((tetrahydro-2H-pyran-4-yl)oxy)ethyl)-5-methyl-3-(I-methyl-2-oxopiperidin-3-yl)-6-(oxazol-2-yl)thieno[2,3-d]pyrimidine-2,4(1H,3H)-dione] | 0.7 to 2 nM
COc1ccc(F)cc1[C@H](Cn1c(=O)n([C@]2(C)CCNC2=O)c(=O)c2c(C)c(-n3nccn3)sc21)OCCO [Compound I-144, 1-((R)-2-(5-fluoro-2-methoxyphenyl)-2-(2-hydroxyethoxy)ethyl)-5-methyl-3-((R)-3-methyl-2-oxopyrrolidin-3-yl)-6-(2H-1,2,3-triazol-2-yl)thieno[2,3-d]pyrimidine-2,4(1H,3H)-dione] | > 1000 nM
COc1ccc(F)cc1[C@H](Cn1c(=O)n([C@]2(C)CCC(=O)NC2)c(=O)c2c(C)c(-n3nccn3)sc21)OCCO [Compound I-133, 1-((R)-2-(5-fluoro-2-methoxyphenyl)-2-(2-hydroxy-ethoxy)ethyl)-5-methyl-3-((R)-3-methyl-6-oxopiperidin-3-yl)-6-(2H-1,2,3-triazol-2-yl)thieno[2,3-d]pyrimidine-2,4(1H,3H)-dione] | 0.7 to 2 nM
CCN1CCC(n2c(=O)c3c(C)c(-n4nccn4)sc3n(C[C@H](OC3CCOCC3)c3cc(F)ccc3OC)c2=O)C1=O (stereo partly drawn) [Compound I-11, 3-(1-ethyl-2-oxopyrrolidin-3-yl)-1-((R)-2-(5-fluoro-2-methoxyphenyl)-2-((tetrahydro-2H-pyran-4-yl)oxy)ethyl)-5-methyl-6-(2H-1,2,3-triazol-2-yl)thieno[2,3-d]pyrimidine-2,4(1H,3H)-dione] | 2 to 10 nM
COc1ccc(F)cc1[C@H](Cn1c(=O)n(C2CCCN(C(C)C)C2=O)c(=O)c2c(C)c(-n3nccn3)sc21)OC1CCOCC1 (stereo partly drawn) [Compound I-24] | 0.7 to 2 nM
COc1ccc(F)cc1[C@H](Cn1c(=O)n([C@]2(C)CCN(C)C2=O)c(=O)c2c(C)c(-n3nccn3)sc21)OCCO [Compound I-147, 3-((R)-1,3-dimethyl-2-oxopyrrolidin-3-yl)-1-((R)-2-(5-fluoro-2-methoxyphenyl)-2-(2-hydroxyethoxy)ethyl)-5-methyl-6-(2H-1,2,3-triazol-2-yl)thieno[2,3-d]pyrimidine-2,4(1H,3H)-dione] | > 1000 nM
COc1ccccc1[C@H](Cn1c(=O)n(C2CCCN(C)C2=O)c(=O)c2c(C)c(-c3ncco3)sc21)OC1CCOCC1 (stereo partly drawn) [Compound I-50, 1-((R)-2-(2-methoxyphenyl)-2-((tetrahydro-2H-pyran-4-yl)oxy)ethyl)-5-methyl-3-(1-methyl-2-oxopiperidin-3-yl)-6-(oxazol-2-yl)thieno[2,3-d]pyrimidine-2,4(1H,3H)-dione] | 2 to 10 nM
COc1ccc(F)cc1[C@H](Cn1c(=O)n([C@@H]2CCNC2=O)c(=O)c2c(C)c(-n3nccn3)sc21)OC1CCOCC1 [Compound I-34, 1-((R)-2-(5-fluoro-2-methoxyphenyl)-2-((tetrahydro-2H-pyran-4-yl)oxy)ethyl)-5-methyl-3-((R)-2-oxopyrrolidin-3-yl)-6-(2H-1,2,3-triazol-2-yl)thieno[2,3-d]pyrimidine-2,4(1H,3H)-dione] | 0.7 to 2 nM
COc1ccc(F)cc1[C@H](Cn1c(=O)n([C@@]2(C)CCN(C)C2=O)c(=O)c2c(C)c(-n3nccn3)sc21)OCCO [Compound I-149, 3-((S)-1,3-dimethyl-2-oxopyrrolidin-3-yl)-1-((R)-2-(5-fluoro-2-methoxyphenyl)-2-(2-hydroxyethoxy)ethyl)-5-methyl-6-(2H-1,2,3-triazol-2-yl)thieno[2,3-d]pyrimidine-2,4(1H,3H)-dione] | > 1000 nM
COc1ccc(F)cc1[C@H](Cn1c(=O)n(C2CCCN(C(C)C)C2=O)c(=O)c2c(C)c(-n3nccn3)sc21)OCCO (stereo partly drawn) [Compound I-20, 1-((R)-2-(5-fluoro-2-methoxyphenyl)-2-(2-hydroxy-ethoxy)ethyl)-3-(1-isopropyl-2-oxopiperidin-3-yl)-5-methyl-6-(2H-1,2,3-triazol-2-yl)thieno[2,3-d]pyrimidine-2,4(1H,3H)-dione] | 0.7 to 2 nM
COc1ccc(F)cc1[C@H](Cn1c(=O)n([C@@]2(C)CCNC2=O)c(=O)c2c(C)c(-n3nccn3)sc21)OCCO [Compound I-145, 1-((R)-2-(5-fluoro-2-methoxyphenyl)-2-(2-hydroxy-ethoxy)ethyl)-5-methyl-3-((S)-3-methyl-2-oxopyrrolidin-3-yl)-6-(2H-1,2,3-triazol-2-yl)thieno[2,3-d]pyrimidine-2,4(1H,3H)-dione] | > 1000 nM
COc1ccc(F)cc1[C@H](Cn1c(=O)n([C@H]2CCNC2=O)c(=O)c2c(C)c(-n3nccn3)sc21)OC1CCOCC1 [Compound I-33, 1-((R)-2-(5-fluoro-2-methoxyphenyl)-2-((tetrahydro-2H-pyran-4-yl)oxy)ethyl)-5-methyl-3-((S)-2-oxopyrrolidin-3-yl)-6-(2H-1,2,3-triazol-2-yl)thieno[2,3-d]pyrimidine-2,4(1H,3H)-dione] | 0.7 to 2 nM
COc1ccc(F)cc1[C@H](Cn1c(=O)n([C@H]2CCCN(C)C2=O)c(=O)c2c(C)c(-c3ncco3)sc21)OCCO [Compound I-63, 1-((R)-2-(5-fluoro-2-methoxyphenyl)-2-(2-hydroxy-ethoxy)ethyl)-5-methyl-3-((S)-1-methyl-2-oxopiperidin-3-yl)-6-(oxazol-2-yl)thieno[2,3-d]pyrimidine-2,4(1H,3H)-dione] | 2 to 10 nM
COc1ccccc1[C@H](Cn1c(=O)n(C2CCN(C)C2=O)c(=O)c2c(C)c(-c3ncco3)sc21)OC1CCOCC1 (stereo partly drawn) [Compound I-57, 1-((R)-2-(2-methoxyphenyl)-2-((tetrahydro-2H-pyran-4-yl)oxy)ethyl)-5-methyl-3-(1-methyl-2-oxopyrrolidin-3-yl)-6-(oxazol-2-yl)thieno[2,3-d]pyrimidine-2,4(1H,3H)-dione] | 0.7 to 2 nM
COc1ccc(F)cc1[C@H](Cn1c(=O)n([C@@H]2CCCNC2=O)c(=O)c2c(C)c(-c3ncco3)sc21)OCCO [Compound I-64, 1-((R)-2-(5-fluoro-2-methoxyphenyl)-2-(2-hydroxy-ethoxy)ethyl)-5-methyl-6-(oxazol-2-yl)-3-((R)-2-oxopiperidin-3-yl)thieno[2,3-d]pyrimidine-2,4(1H,3H)-dione] | 2 to 10 nM

— US20190330224A1, “ACC INHIBITORS AND USES THEREOF” (Gilead Apollo, LLC, priority 2015, published 2019)
